The values below are quoted from earlier work in PMC5217177 (Journal of natural products, 2016).

The data set deals with three distinct human tumor cell lines. As to conditions: cited from earlier work.

As for actinomycin Y5, the “cytotoxicity” value was “did not have detectable cytotoxicity”. The “fold less potent than actinomycin D (cytotoxicity)” value (three distinct human tumor cell lines) was greater than 5000 fold.
